Test results: US20070154546A1, “Sustained release pharmaceutical compositions” (priority 2005, published 2007)

Assays:
[1] = In vitro solubility in human serum; details: calculated as montelukast sodium; HPLC method
[2] = background statement; cited from earlier work
[3] = 150 mg, IM administration; cited from earlier work

Row | Substance | Solubility in human serum [1] [µg/mL] | Solubility in human serum [2] [µg/mL] | Duration of slow dissolution and release [3]
1 | montelukast palmito-cholinium [Example 12] | 1600 | – | –
2 | montelukast lauro-cholinium [Example 11] | 2800 | – | –
3 | montelukast cetyl-pyridinium [Example 13] | 1100 | – | –
4 | medroxyprogesterone | – | 42 | up to three months

Read-outs that look alike come from different tables or passages of the source.
